From ChEMBL document CHEMBL1153940, “Anthranilic acid based CCK1 receptor antagonists: blocking the receptor with the same 'words' of the endogenous ligand” (Bioorg Med Chem, 2009)

Test system: Gastrin/cholecystokinin type B receptor (Cavia porcellus)
Experiment: Displacement of [125I]BH-CCK8 from CCK2 receptor in Hartley guinea pig cerebral cortex at 10 uM

Activity	Compound
< 20%	O=C(O)CNC(=O)c1ccccc1NC(=O)c1cc2ccccc2[nH]1
< 20%	O=C(Nc1ccccc1C(=O)NC(Cc1c[nH]c2ccccc12)C(=O)O)c1cc2ccccc2[nH]1 (racemic)
< 20%	O=C(Nc1ccccc1C(=O)NC(Cc1ccc(O)cc1)C(=O)O)c1cc2ccccc2[nH]1 (racemic)
< 20%	CC(C)CC(NC(=O)c1ccccc1NC(=O)c1cc2ccccc2[nH]1)C(=O)O (racemic)
